## CycPeptMPDB entries from one study

Collected by the curators of CycPeptMPDB (Li et al. 2023) from Kelly et al. 2021, doi:10.1021/jacs.0c06115.

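Lipid, pH, incubation time, direction and concentration are not recorded in the data file. The list need not hold all peptides of the study. Peptides that the database sets to -10, its floor, are left out.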

PAMPA measures passive passage through an artificial lipid membrane. Permeability is given as log10 of P in cm/s; higher (less negative) is more permeable.

structure (SMILES),PAMPA (log10 cm/s)
CC(=O)N1CCC[C@H]1C(=O)N(C)[C@H](CC(C)C)C(=O)N[C@@H]1C(=O)N(C)[C@@H](CC(C)C)C(=O)N(C)[C@@H](CC(C)C)C(=O)N(C)[C@H](CC(C)C)C(=O)N(C)[C@H](C)C(=O)N[C@H](CC(C)C)C(=O)N2CCC[C@H]2C(=O)O[C@@H]1C,-5.44
CC(=O)N1CCC[C@H]1C(=O)N[C@@H]1C(=O)N(C)[C@H](CC(C)C)C(=O)N(C)[C@@H](CC(C)C)C(=O)N(C)[C@H](CC(C)C)C(=O)N(C)[C@@H](CC(C)C)C(=O)N(C)[C@@H](C)C(=O)N[C@@H](CC(C)C)C(=O)N2CCC[C@@H]2C(=O)O[C@@H]1C,-4.81
CC(=O)N1CCC[C@@H]1C(=O)N(C)[C@@H](CC(C)C)C(=O)N[C@@H]1C(=O)N[C@H](CC(C)C)C(=O)N(C)[C@H](CC(C)C)C(=O)N(C)[C@H](CC(C)C)C(=O)N(C)[C@@H](C)C(=O)N[C@@H](CC(C)C)C(=O)N2CCC[C@H]2C(=O)O[C@@H]1C,-5.31
CC(=O)N1CCC[C@H]1C(=O)N[C@@H]1C(=O)N[C@H](CC(C)C)C(=O)N[C@@H](CC(C)C)C(=O)N(C)[C@H](CC(C)C)C(=O)N[C@H](CC(C)C)C(=O)N[C@@H](C)C(=O)N[C@@H](CC(C)C)C(=O)N2CCC[C@@H]2C(=O)O[C@@H]1C,-5.12
CC(=O)N1CCC[C@@H]1C(=O)N(C)[C@@H](CC(C)C)C(=O)N[C@@H]1C(=O)N[C@@H](CC(C)C)C(=O)N[C@@H](CC(C)C)C(=O)N[C@@H](CC(C)C)C(=O)N(C)[C@@H](C)C(=O)N[C@@H](CC(C)C)C(=O)N2CCC[C@H]2C(=O)O[C@@H]1C,-6.40
CC(=O)N1CCC[C@@H]1C(=O)N(C)[C@@H](CC(C)C)C(=O)N[C@@H]1C(=O)N[C@H](CC(C)C)C(=O)N[C@@H](CC(C)C)C(=O)N(C)[C@H](CC(C)C)C(=O)N[C@@H](C)C(=O)N[C@H](CC(C)C)C(=O)N2CCC[C@H]2C(=O)O[C@@H]1C,-5.76
CC(=O)N1CCC[C@@H]1C(=O)N(C)[C@@H](CC(C)C)C(=O)N[C@@H]1C(=O)N[C@@H](CC(C)C)C(=O)N[C@H](CC(C)C)C(=O)N[C@@H](CC(C)C)C(=O)N[C@@H](C)C(=O)N[C@@H](CC(C)C)C(=O)N2CCC[C@@H]2C(=O)O[C@@H]1C,-6.50
CC(=O)N1CCC[C@H]1C(=O)N(C)[C@@H](CC(C)C)C(=O)N[C@@H]1C(=O)N(C)[C@H](CC(C)C)C(=O)N(C)[C@@H](CC(C)C)C(=O)N(C)[C@@H](CC(C)C)C(=O)N(C)[C@H](C)C(=O)N[C@@H](CC(C)C)C(=O)N2CCC[C@@H]2C(=O)O[C@@H]1C,-5.29
CC(=O)N1CCC[C@H]1C(=O)N[C@@H]1C(=O)N[C@H](CC(C)C)C(=O)N[C@H](CC(C)C)C(=O)N[C@@H](CC(C)C)C(=O)N(C)[C@H](CC(C)C)C(=O)N(C)[C@H](C)C(=O)N[C@@H](CC(C)C)C(=O)N2CCC[C@@H]2C(=O)O[C@@H]1C,-5.83
CC(=O)N1CCC[C@H]1C(=O)N(C)[C@@H](CC(C)C)C(=O)N[C@@H]1C(=O)N[C@@H](CC(C)C)C(=O)N[C@H](CC(C)C)C(=O)N[C@H](CC(C)C)C(=O)N(C)[C@H](C)C(=O)N[C@H](CC(C)C)C(=O)N2CCC[C@H]2C(=O)O[C@@H]1C,-6.90
CC(=O)N1CCC[C@H]1C(=O)N[C@@H]1C(=O)N[C@H](CC(C)C)C(=O)N(C)[C@H](CC(C)C)C(=O)N[C@H](CC(C)C)C(=O)N(C)[C@H](CC(C)C)C(=O)N(C)[C@H](C)C(=O)N[C@@H](CC(C)C)C(=O)N2CCC[C@@H]2C(=O)O[C@@H]1C,-5.47
CC(=O)N1CCC[C@@H]1C(=O)N(C)[C@H](CC(C)C)C(=O)N[C@@H]1C(=O)N[C@H](CC(C)C)C(=O)N(C)[C@@H](CC(C)C)C(=O)N(C)[C@@H](CC(C)C)C(=O)N(C)[C@@H](C)C(=O)N[C@@H](CC(C)C)C(=O)N2CCC[C@H]2C(=O)O[C@@H]1C,-5.67
CC(=O)N1CCC[C@@H]1C(=O)N(C)[C@@H](CC(C)C)C(=O)N[C@@H]1C(=O)N(C)[C@H](CC(C)C)C(=O)N[C@H](CC(C)C)C(=O)N[C@@H](CC(C)C)C(=O)N(C)[C@H](C)C(=O)N[C@@H](CC(C)C)C(=O)N2CCC[C@@H]2C(=O)O[C@@H]1C,-6.18
CC(=O)N1CCC[C@H]1C(=O)N(C)[C@@H](CC(C)C)C(=O)N[C@@H]1C(=O)N[C@H](CC(C)C)C(=O)N[C@@H](CC(C)C)C(=O)N[C@H](CC(C)C)C(=O)N[C@H](C)C(=O)N[C@@H](CC(C)C)C(=O)N2CCC[C@@H]2C(=O)O[C@@H]1C,-6.88
CC(=O)N1CCC[C@@H]1C(=O)N(C)[C@H](CC(C)C)C(=O)N[C@@H]1C(=O)N(C)[C@H](CC(C)C)C(=O)N(C)[C@@H](CC(C)C)C(=O)N[C@@H](CC(C)C)C(=O)N(C)[C@@H](C)C(=O)N[C@H](CC(C)C)C(=O)N2CCC[C@@H]2C(=O)O[C@@H]1C,-5.02
CC(=O)N1CCC[C@H]1C(=O)N(C)[C@H](CC(C)C)C(=O)N[C@@H]1C(=O)N[C@H](CC(C)C)C(=O)N(C)[C@@H](CC(C)C)C(=O)N(C)[C@H](CC(C)C)C(=O)N(C)[C@H](C)C(=O)N[C@@H](CC(C)C)C(=O)N2CCC[C@@H]2C(=O)O[C@@H]1C,-5.23
CC(=O)N1CCC[C@@H]1C(=O)N(C)[C@H](CC(C)C)C(=O)N[C@@H]1C(=O)N(C)[C@H](CC(C)C)C(=O)N(C)[C@@H](CC(C)C)C(=O)N[C@@H](CC(C)C)C(=O)N(C)[C@@H](C)C(=O)N[C@@H](CC(C)C)C(=O)N2CCC[C@H]2C(=O)O[C@@H]1C,-6.45

The 2 highest values of PAMPA among the entries above:

| structure (SMILES) | PAMPA (log10 cm/s) |
|---|---|
| CC(=O)N1CCC[C@H]1C(=O)N[C@@H]1C(=O)N(C)[C@H](CC(C)C)C(=O)N(C)[C@@H](CC(C)C)C(=O)N(C)[C@H](CC(C)C)C(=O)N(C)[C@@H](CC(C)C)C(=O)N(C)[C@@H](C)C(=O)N[C@@H](CC(C)C)C(=O)N2CCC[C@@H]2C(=O)O[C@@H]1C | -4.81 |
| CC(=O)N1CCC[C@@H]1C(=O)N(C)[C@H](CC(C)C)C(=O)N[C@@H]1C(=O)N(C)[C@H](CC(C)C)C(=O)N(C)[C@@H](CC(C)C)C(=O)N[C@@H](CC(C)C)C(=O)N(C)[C@@H](C)C(=O)N[C@H](CC(C)C)C(=O)N2CCC[C@@H]2C(=O)O[C@@H]1C | -5.02 |